Usually Emax stands for the greatest response seen or fitted, relative to the assay's reference. By pEC50 is commonly meant the negative decadic logarithm of the EC50, by convention in mol/L. Low values mean a large EC50, high ones a small EC50.

The values that follow come from US6936585B2, “Corticotropin releasing factor 2 receptor agonists” (priority 2002, dated 2005).

pEC50: −log10 of the molar value. Where only a bound is given, the exact number is not on record here.

In one test the target is T1, CRF2R (Homo sapiens, UniProt Q13324).
T1 sequence (Q13324 1-411): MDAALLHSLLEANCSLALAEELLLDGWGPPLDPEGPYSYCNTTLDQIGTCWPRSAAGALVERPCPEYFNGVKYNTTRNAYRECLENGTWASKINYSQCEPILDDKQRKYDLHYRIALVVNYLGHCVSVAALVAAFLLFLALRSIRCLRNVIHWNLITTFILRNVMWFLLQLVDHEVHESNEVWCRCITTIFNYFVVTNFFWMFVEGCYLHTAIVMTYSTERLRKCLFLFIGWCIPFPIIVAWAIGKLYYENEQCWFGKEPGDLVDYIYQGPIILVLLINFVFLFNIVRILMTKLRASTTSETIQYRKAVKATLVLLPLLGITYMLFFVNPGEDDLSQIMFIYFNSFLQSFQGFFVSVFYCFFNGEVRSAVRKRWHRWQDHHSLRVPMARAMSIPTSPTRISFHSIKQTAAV
Nature of the test: CRF2R agonist activation (EC50 / Emax), called comparative CRF binding. The format is cell-based. As to conditions: for Emax: read-out: CRF2R Emax. In short, it runs like this: (§1)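 Cells expressing full-length human CRF1R or CRF2R were exposed to peptide or vehicle control, and receptor activation was gauged as cAMP induction. cAMP was measured in cell lysates or via a cAMP-responsive element driving a reporter gene such as luciferase, CAT, GFP or alkaline phosphatase.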

The target of a further test is T2, CRF1R (Homo sapiens, UniProt P34998).
T2 sequence (P34998 24-415): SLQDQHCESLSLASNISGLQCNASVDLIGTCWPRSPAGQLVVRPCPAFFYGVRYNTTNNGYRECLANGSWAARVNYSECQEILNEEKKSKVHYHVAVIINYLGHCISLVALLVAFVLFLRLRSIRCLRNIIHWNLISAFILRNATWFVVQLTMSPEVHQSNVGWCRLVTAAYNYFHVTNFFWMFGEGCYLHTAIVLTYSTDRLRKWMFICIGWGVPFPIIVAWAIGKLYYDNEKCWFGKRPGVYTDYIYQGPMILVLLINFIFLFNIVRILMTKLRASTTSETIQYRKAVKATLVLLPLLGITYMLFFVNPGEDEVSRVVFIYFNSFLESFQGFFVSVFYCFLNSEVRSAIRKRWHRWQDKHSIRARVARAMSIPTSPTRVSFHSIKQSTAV
The test is described as follows: CRF1R agonist activation (EC50 / Emax), called comparative CRF binding. It is filed as cell-based. As to conditions: for Emax: read-out: CRF1R Emax. Summed up:
as §1

In the case of `CC[C@H](C)[C@H](NC(=O)[C@@H](NC(=O)[C@H](CC(=O)O)NC(=O)[C@H](CC(C)C)NC(=O)[C@H](CC(C)C)NC(=O)[C@H](CC(C)C)NC(=O)[C@H](CCCNC(=N)N)NC(=O)[C@H](CC(N)=O)NC(=O)[C@H](CC(N)=O)NC(=O)[C@H](C)NC(=O)[C@H](C)NC(=O)[C@H](CCC(N)=O)NC(=O)[C@H](CCC(N)=O)NC(=O)[C@H](CCCCN)NC(=O)[C@H](CCC(=O)O)NC(=O)[C@H](CCCCN)NC(=O)[C@H](CCC(=O)O)NC(=O)[C@H](CCC(N)=O)NC(=O)[C@H](CCCCN)NC(=O)[C@H](CCC(=O)O)NC(=O)[C@@H](NC(=O)[C@H](CCC(=O)O)NC(=O)[C@@H](NC(=O)[C@H](CCSC)NC(=O)[C@H](CCCCN)NC(=O)[C@H](CCCNC(=N)N)NC(=O)[C@H](CC(C)C)NC(=O)[C@H](CC(C)C)NC(=O)[C@H](Cc1ccc(O)cc1)NC(=O)[C@@H](NC(=O)[C@@H]1CCCN1C(=O)[C@H](CC(C)C)NC(=O)[C@H](CC(=O)O)NC(=O)[C@@H](NC(=O)[C@H](CO)NC(=O)[C@@H](NC(=O)[C@@H]1CCCN1C(=O)[C@@H]1CCCN1C(=O)CNC(=O)[C@@H]1CCC(=O)N1)[C@@H](C)CC)[C@@H](C)CC)[C@@H](C)CC)[C@@H](C)CC)[C@@H](C)CC)[C@@H](C)O)C(N)=O` [compound 79], the Emax on CRF2R amounted to 100%; on CRF1R it was 8%.
Take `CC[C@H](C)[C@H](NC(=O)[C@@H](NC(=O)[C@H](CC(=O)O)NC(=O)[C@H](CC(C)C)NC(=O)[C@H](CC(C)C)NC(=O)[C@H](CC(C)C)NC(=O)[C@H](CCCNC(=N)N)NC(=O)[C@H](CC(N)=O)NC(=O)[C@H](CC(N)=O)NC(=O)[C@H](C)NC(=O)[C@H](C)NC(=O)[C@H](CCC(N)=O)NC(=O)[C@H](CCC(N)=O)NC(=O)[C@H](CCCCN)NC(=O)[C@H](CCC(=O)O)NC(=O)[C@H](CCCCN)NC(=O)[C@H](CCC(=O)O)NC(=O)[C@H](CCC(N)=O)NC(=O)[C@H](CCCCN)NC(=O)[C@H](CCC(=O)O)NC(=O)[C@@H](NC(=O)[C@H](CCC(=O)O)NC(=O)[C@@H](NC(=O)[C@H](CCSC)NC(=O)[C@H](CCCCN)NC(=O)[C@H](CCCNC(=N)N)NC(=O)[C@H](CC(C)C)NC(=O)[C@H](CC(C)C)NC(=O)[C@H](CCC(=O)O)NC(=O)[C@@H](NC(=O)[C@@H]1CCCN1C(=O)[C@H](CC(C)C)NC(=O)[C@H](CC(=O)O)NC(=O)[C@@H](NC(=O)[C@H](CO)NC(=O)[C@@H](NC(=O)[C@@H]1CCCN1C(=O)[C@@H]1CCCN1C(=O)CNC(=O)[C@@H]1CCC(=O)N1)[C@@H](C)CC)[C@@H](C)CC)[C@@H](C)CC)[C@@H](C)CC)[C@@H](C)CC)[C@@H](C)O)C(N)=O` [compound 76]: the pEC50 at CRF2R was 7.04; at CRF1R (CRF1R EC50), below 7.00. Besides, the Emax at CRF2R stood at 76%; at CRF1R, 7%.
As to `CC[C@H](C)[C@H](NC(=O)[C@H](CCCNC(=N)N)NC(=O)[C@H](C)NC(=O)[C@H](CC(N)=O)NC(=O)[C@@H](NC(=O)[C@@H](NC(=O)[C@H](C)NC(=O)[C@H](CCC(N)=O)NC(=O)[C@H](CCC(=O)O)NC(=O)[C@H](CCCNC(=N)N)NC(=O)[C@H](C)NC(=O)[C@H](C)NC(=O)[C@H](CCCNC(=N)N)NC(=O)[C@H](C)NC(=O)[C@H](CCCNC(=N)N)NC(=O)[C@H](C)NC(=O)[C@H](CCC(N)=O)NC(=O)[C@H](CCC(=O)O)NC(=O)[C@@H](NC(=O)[C@H](CCSC)NC(=O)[C@H](CCCCN)NC(=O)[C@H](CCCNC(=N)N)NC(=O)[C@H](CC(C)C)NC(=O)[C@H](CC(C)C)NC(=O)[C@H](CCC(=O)O)NC(=O)[C@H](CC(C)C)NC(=O)[C@H](CO)NC(=O)[C@H](CC(C)C)NC(=O)[C@H](CC(=O)O)NC(=O)[C@@H](NC(=O)[C@H](CO)NC(=O)[C@@H](NC(=O)[C@@H]1CCCN1C(=O)[C@@H]1CCCN1C(=O)CNC(=O)[C@@H]1CCC(=O)N1)[C@@H](C)CC)[C@@H](C)CC)[C@@H](C)CC)[C@@H](C)O)[C@@H](C)O)C(=O)N[C@@H](CC(C)C)C(=O)N[C@@H](C)C(=O)N[C@@H](CCCNC(=N)N)C(=O)N[C@H](C(N)=O)C(C)C` [compound 156], the values for the Emax at CRF2R and on CRF1R were 79% and 6%, respectively.
